# Ab-91 heavy chain CDR variants: yeast mating affinities

Data: MIT Lincoln Laboratory AlphaSeq set, Engelhart et al. 2022, doi:10.1038/s41597-022-01779-4, as distributed in FLAb.

The target is the same throughout: PDVDLGDISGINAS, from the HR2 region of SARS-CoV-2 spike.

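The parent was found by panning a naive human phage display library on the peptide. Library AAYL51 holds single substitutions and randomly drawn double and triple substitutions in the CDRs. The assay is AlphaSeq: two haploid yeast populations carry antibody and antigen on their surface. After mating in shaken culture at 30 °C for 16 h, diploids were selected and their barcode pairs sequenced. Read counts were normalised to the haploid input and turned into Kd by a linear fit to BCL2-family pairs of known affinity, for each replicate. There are three technical replicates.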

The variants keep the light chain, the linker and the frameworks of Ab-91 (scFv order VL, the linker GGGGSGGGGSGGGGS, VH).
VL: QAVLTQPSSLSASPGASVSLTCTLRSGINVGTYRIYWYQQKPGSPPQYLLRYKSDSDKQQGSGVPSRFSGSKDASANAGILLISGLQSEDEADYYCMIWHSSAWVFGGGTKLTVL
VH: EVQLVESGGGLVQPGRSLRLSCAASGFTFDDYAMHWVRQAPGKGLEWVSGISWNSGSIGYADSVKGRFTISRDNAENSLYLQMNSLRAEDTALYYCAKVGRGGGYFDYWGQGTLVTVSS

Changes read parent residue, position, new residue, counted from the first residue of the VH shown.
Affinities are written as log10 Kd with Kd in nM; a lower number is a better binder.
The mean shown is taken over the replicates in which the pair was detected.
Where no diploid with the target was found in that replicate, the entry reads "n.d.": below detection, most likely a poor binder, though not proof of it.
Background: pairings of library AAYL51 with three empty control strains gave a value in 21% of cases (median 4.54, 5th percentile 3.26). Values in that range, when seen in few replicates, are hard to tell from nonspecific mating. Also given: how often the same scFv was detected with the empty control strains, with their mean in brackets.
Parent in this assay: reference entry 1.86, copy in this library 0.88.

changes,"log10 Kd, replicates",mean log10 Kd (nM),empty controls
S52M+N54F+Y108S,5.24 / 5.60 / 6.55,5.80,9/9 (5.09)
S55L+I58A+Y108C,2.73 / 3.13 / 2.87,2.91,4/9 (5.03)
G26K+I51V+D107G,n.d. / n.d. / n.d.,n.d.,0/9
F27D+D31C+S57K,n.d. / n.d. / n.d.,n.d.,2/9 (4.98)
G50H+S52I+V99D,n.d. / n.d. / n.d.,n.d.,2/9 (4.28)
G26N+G50T+S52N,3.91 / n.d. / n.d.,3.91,1/9 (4.52)
S52G+V64Y+G104Y,n.d. / n.d. / n.d.,n.d.,2/9 (4.04)
T28E+G50V+Y108E,n.d. / n.d. / n.d.,n.d.,5/9 (4.43)
G50A+N54W+V99Y,n.d. / n.d. / n.d.,n.d.,2/9 (4.07)
A33G+R101F+G103K,5.53 / n.d. / n.d.,5.53,2/9 (3.87)
T28H+K65F+V99Q,n.d. / n.d. / n.d.,n.d.,1/9 (2.79)
T28V+G100K+G103T,5.18 / 5.47 / 5.69,5.45,9/9 (5.33)
G26A+Y32C+K65Q,3.37 / n.d. / n.d.,3.37,1/9 (2.53)
G26S+S55R+G103L,n.d. / n.d. / n.d.,n.d.,0/9
G59R+Y60P+G102R,n.d. / n.d. / 5.43,5.43,5/9 (4.47)
V99G+Y105W,2.36 / 2.85 / 3.58,2.93,0/9
W53L+K65N+R101K,2.02 / 2.46 / 2.13,2.20,1/9 (3.77)
V64R+G102W+F106S,n.d. / n.d. / n.d.,n.d.,2/9 (4.57)
H35Y+S52G+G103V,n.d. / n.d. / n.d.,n.d.,0/9
H35L+S57R,n.d. / n.d. / n.d.,n.d.,2/9 (4.43)
G26M+T28R+G56H,n.d. / n.d. / 3.44,3.44,2/9 (4.56)
S57H+D107N,2.79 / 2.40 / 1.94,2.38,4/9 (4.51)
W53C+R101I+G103D,4.80 / 4.03 / 4.67,4.50,5/9 (4.51)
Y32S+G50R+W53M,n.d. / n.d. / n.d.,n.d.,1/9 (4.62)
F27G+A33W+W53A,4.28 / n.d. / n.d.,4.28,1/9 (5.16)
Y60D+R101N+G102Y,5.15 / 5.42 / n.d.,5.28,4/9 (5.32)
G56K+R101A,n.d. / 5.86 / 4.44,5.15,3/9 (4.21)
G50N+G59W+F106W,5.53 / n.d. / n.d.,5.53,0/9
Y105P,n.d. / n.d. / n.d.,n.d.,0/9
Y60Q+D62P+Y105D,4.37 / n.d. / n.d.,4.37,4/9 (4.88)
G50K+Y60W+S63L,5.43 / 4.86 / n.d.,5.15,7/9 (5.31)
S52E+S57P+K65Y,5.62 / n.d. / n.d.,5.62,2/9 (3.72)
A33K+G59A+G103C,n.d. / n.d. / n.d.,n.d.,3/9 (4.07)
D62T+V99H,4.26 / n.d. / n.d.,4.26,1/9 (4.26)
H35A+A61K+G102N,4.56 / 6.05 / 4.85,5.15,1/9 (3.74)
D31G+S55W+V64T,n.d. / n.d. / n.d.,n.d.,1/9 (4.57)
M34C+K65I+G102T,n.d. / 3.86 / n.d.,3.86,1/9 (6.20)
H35N+G100E,3.26 / n.d. / n.d.,3.26,2/9 (3.46)
V99Q+G102E,n.d. / n.d. / 3.65,3.65,1/9 (3.52)
F27A+T28N+I58M,3.49 / 3.56 / 4.20,3.75,5/9 (4.96)
Y32I+M34L+Y108K,n.d. / n.d. / n.d.,n.d.,0/9
F27S+S52N+G100V,n.d. / n.d. / n.d.,n.d.,1/9 (3.25)
D31C+S52C+D107N,n.d. / n.d. / n.d.,n.d.,0/9
Y60P+A61W+V99R,n.d. / n.d. / n.d.,n.d.,0/9
F29H+I51H+Y60H,5.00 / 5.81 / 5.71,5.50,5/9 (5.11)
Y60K+D62K+V64H,4.04 / 3.28 / n.d.,3.66,2/9 (3.77)
F29L+N54Y+G100Q,n.d. / n.d. / n.d.,n.d.,0/9